Laboratory results published in patent publication US10174037B2, “Dihydropyrazolopyrimidinone compounds as PDE2 inhibitors” (Merck Sharp & Dohme Corp., priority 2015, dated 2019).

The chains behind the UniProt entries cited, without tags or fusion partners. A line that says so, or that is headed by a name, gives the form on record, which may keep a tag or linker. Residues count along the entry.
UniProt O00408, other isoform, or with tags, fused parts or gaps: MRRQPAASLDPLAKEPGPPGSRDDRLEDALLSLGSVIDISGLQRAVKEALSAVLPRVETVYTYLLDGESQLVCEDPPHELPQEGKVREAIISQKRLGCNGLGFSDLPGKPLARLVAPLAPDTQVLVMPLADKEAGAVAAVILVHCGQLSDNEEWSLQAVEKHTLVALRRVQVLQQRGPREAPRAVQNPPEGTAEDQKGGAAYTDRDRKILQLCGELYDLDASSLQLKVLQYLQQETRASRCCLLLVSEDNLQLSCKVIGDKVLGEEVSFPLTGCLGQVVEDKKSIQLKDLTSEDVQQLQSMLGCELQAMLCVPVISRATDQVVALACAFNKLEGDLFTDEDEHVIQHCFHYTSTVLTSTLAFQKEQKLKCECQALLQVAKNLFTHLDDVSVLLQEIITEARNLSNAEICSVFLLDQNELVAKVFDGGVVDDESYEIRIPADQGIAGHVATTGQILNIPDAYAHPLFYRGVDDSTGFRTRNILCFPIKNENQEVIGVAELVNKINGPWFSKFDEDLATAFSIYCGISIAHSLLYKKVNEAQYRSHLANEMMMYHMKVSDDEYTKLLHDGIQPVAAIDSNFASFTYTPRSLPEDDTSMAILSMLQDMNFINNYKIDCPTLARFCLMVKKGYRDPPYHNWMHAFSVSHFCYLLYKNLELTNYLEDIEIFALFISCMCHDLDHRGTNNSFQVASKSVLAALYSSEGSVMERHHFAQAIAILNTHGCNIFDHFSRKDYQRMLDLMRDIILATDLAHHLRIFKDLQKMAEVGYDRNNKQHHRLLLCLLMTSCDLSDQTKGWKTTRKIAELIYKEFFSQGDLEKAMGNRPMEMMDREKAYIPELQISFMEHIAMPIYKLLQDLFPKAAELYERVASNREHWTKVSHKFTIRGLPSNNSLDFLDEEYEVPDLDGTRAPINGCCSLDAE
UniProt B3VTJ2, 1-941: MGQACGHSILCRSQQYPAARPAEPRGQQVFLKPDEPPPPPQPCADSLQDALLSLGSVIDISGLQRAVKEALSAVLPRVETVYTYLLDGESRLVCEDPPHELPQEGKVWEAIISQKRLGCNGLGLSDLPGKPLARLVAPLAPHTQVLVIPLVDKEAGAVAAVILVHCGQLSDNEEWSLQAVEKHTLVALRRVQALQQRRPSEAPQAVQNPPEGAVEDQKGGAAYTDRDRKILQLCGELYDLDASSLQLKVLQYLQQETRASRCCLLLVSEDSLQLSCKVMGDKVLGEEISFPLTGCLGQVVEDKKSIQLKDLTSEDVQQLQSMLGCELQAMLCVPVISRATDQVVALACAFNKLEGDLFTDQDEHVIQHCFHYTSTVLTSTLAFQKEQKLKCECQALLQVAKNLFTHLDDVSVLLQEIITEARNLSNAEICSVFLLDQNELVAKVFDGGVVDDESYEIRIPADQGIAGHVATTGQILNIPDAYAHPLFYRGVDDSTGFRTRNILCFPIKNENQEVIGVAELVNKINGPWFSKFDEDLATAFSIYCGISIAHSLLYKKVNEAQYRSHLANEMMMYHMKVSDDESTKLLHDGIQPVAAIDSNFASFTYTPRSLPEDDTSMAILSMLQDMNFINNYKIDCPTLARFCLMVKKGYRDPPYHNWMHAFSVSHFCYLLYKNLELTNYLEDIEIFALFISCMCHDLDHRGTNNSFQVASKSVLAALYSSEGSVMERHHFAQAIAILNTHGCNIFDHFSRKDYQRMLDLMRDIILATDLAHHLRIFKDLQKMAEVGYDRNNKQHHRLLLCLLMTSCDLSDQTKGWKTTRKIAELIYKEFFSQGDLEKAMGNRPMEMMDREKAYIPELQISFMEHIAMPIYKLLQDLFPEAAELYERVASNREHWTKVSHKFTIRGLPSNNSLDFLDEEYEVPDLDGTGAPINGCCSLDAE

The compounds below were run against human PDE2A1 (Homo sapiens (Human), UniProt O00408) (assay: PDE selectivity IMAP FP assay, human PDE2A1). Details: Human PDE2; Lab B.
Format: biochemical
Description: Selectivity for PDE2, as compared to other PDE families, was assessed using the IMAP® technology. Human PDE10A2 enzyme was prepared from cytosolic fractions of transiently transfected HEK cells.
A Labcyte POD 810 (Labcyte, Sunnyvale, Calif.) was used to dispense 200 nL from each well of the titration plate to make eleven copies of the assay plate for each titration, one copy for each PDE enzyme. A solution of each enzyme (dilution from aliquots, sufficient to produce 20% substrate conversion) and a separate solution of FAM-labeled cAMP or FAM-labeled cGMP from Molecular Devices (Sunnyvale, Calif., product # R7506 or cGMP#R7508), at a final concentration of 50 nM were made in the assay buffer (10 mM Tris HCl, pH 7.2, 10 mM MgCl2, 0.05% NaN3 0.01% Tween-20, and 1 mM DTT). Note that the substrate for PDE2 is 50 nM FAM cAMP containing 1000 nM of cGMP. The enzyme and the substrate were then added to the assay plates in two consecutive additions of 10 μL and then shaken to mix. The reaction was allowed to proceed at room temperature for 60 minutes. A binding solution was then made from the kit components, comprised of 80% Solution A, 20% Solution B and binding reagent at a volume of 1/600 the total binding solution. The enzymatic reaction was stopped by addition of 60 μL of the binding solution to each well of the assay plate. The plates were sealed and shaken for 10 seconds. The plates were incubated at room temperature for one hour, then the parallel and perpendicular fluorescence was measured using a Tecan Genios Pro plate reader (Tecan, Switzerland). […] The intrinsic PDE2 inhibitory activity of a compound which may be used in accordance with the present invention may be determined by these assays. […]
The PDE2 Ki is a measure of the ability of the test compound to inhibit the action of the PDE2 enzyme.
A Ki of 0.32 nM was found for `CC(C)C(c1ccc(C(F)(F)F)c(F)c1)n1nc(CF)c2c(=O)[nH]c(N(C)C)nc21` (single isomer, unassigned) [Example 220, (R)- or (S)-6-(Dimethylamino)-1-(1-(3-fluoro-4-(trifluoromethyl)phenyl)-2-methylpropyl)-3-(fluoromethyl)-1H-pyrazolo[3,4-d]pyrimidin-4(5H)-one] in this work. A Ki of 185 nM was found for `CC(c1ccc(OC(F)(F)F)c(F)c1)n1nc(CO)c2c(=O)[nH]c(O)nc21` (single isomer, unassigned) [Example 10] in this work. A Ki of 8.3 nM was found for `O=c1[nH]c(O)nc2c1c(CC(F)(F)F)nn2C(c1ccc(C(F)(F)F)cc1)C1CC1` (single isomer, unassigned) [Example 227] in this work. A Ki of 27 nM was found for `CC(c1ccc(OC(F)(F)F)c(F)c1)n1nc(CO)c2c(=O)[nH]c(O)nc21` (single isomer, unassigned) [Example 11] in this work. A Ki of 0.52 nM was found for `CCC(c1ccc(C(F)F)c(F)c1)n1nc(CO)c2c(=O)[nH]c(N(C)C)nc21` (single isomer, unassigned) [Example 147] in this work. A Ki of 6 nM was found for `CC(C)C(c1ccc(OC(F)(F)F)c(F)c1)n1nc(CF)c2c(=O)[nH]c(O)nc21` (single isomer, unassigned) [Example 54] in this work. A Ki of 12 nM was found for `O=c1[nH]c(O)nc2c1c(CO)nn2C(c1ccc(C(F)(F)F)cc1)C1CC1` (single isomer, unassigned) [Example 15, (S) or (R)-1-(Cyclopropyl(4-(trifluoromethyl)phenyl)methyl)-6-hydroxy-3-(hydroxymethyl)-1H-pyrazolo[3,4-d]pyrimidin-4(5H)-one] in this work. A Ki of 5.3 nM was found for `CC(C)C(c1ccc(OC(F)(F)F)c(F)c1)n1nc(CF)c2c(=O)[nH]c(O)nc21` (single isomer, unassigned) [Example 53] in this work. A Ki of 0.32 nM was found for `CC(C)C(c1ccc(CC(F)(F)F)cc1)n1nc(CO)c2c(=O)[nH]c(N(C)C)nc21` (single isomer, unassigned) [Example 88, (R)- or (S)-6-(Dimethylamino)-3-(hydroxymethyl)-1-(2-methyl-1-(4-(2,2,2-trifluoroethyl)phenyl)propyl)-1H-pyrazolo[3,4-d]pyrimidin-4(5H)-one] in this work. A Ki of 0.32 nM was found for `CCC(c1ccc(CC(F)(F)F)c(F)c1)n1nc(CO)c2c(=O)[nH]c(N(C)C)nc21` (single isomer, unassigned) [Example 96, (R)- or (S)-6-(Dimethylamino)-1-(1-(3-fluoro-4-(2,2,2-trifluoroethyl)phenyl)propyl)-3-(hydroxymethyl)-1H-pyrazolo[3,4-d]pyrimidin-4(5H)-one] in this work.

Each compound was assayed against Rhesus PDE2A3 (Macaca mulatta, UniProt B3VTJ2) (assay: PDE2 fluorescence polarization (IMAP FP) assay, rhesus PDE2A3). Details: Lab B.
Format: biochemical, rhesus macaque
Description: A Labcyte Echo 555 (Labcyte, Sunnyvale, Calif.) is used to dispense 200 nL from each well of the titration plate to the 384 well assay plate. Ten microliters of a solution of enzyme (1/2000 final dilution from aliquots; sufficient to produce 20% substrate conversion) was added to the assay plate. Next 10 uL of a separate solution of the substrate FAM-labeled cAMP (50 nM final concentration product # R7506 from Molecular Devices) and the activator cGMP (1 uM final concentration), prepared in the assay buffer (10 mM Tris HCl, pH 7.2, 10 mM MgCl2, 0.05% NaN3 0.01% Tween-20, and 1 mM DTT) was added to the assay plate and shaken to mix. The reaction is allowed to proceed at room temperature for 60 minutes. A binding solution is then made from the kit components, comprised of 80% Solution A, 20% Solution B and binding reagent at a volume of 1/600 the total binding solution. The enzymatic reaction is stopped by addition of 60 μL of the binding solution to each well of the assay plates and the plates are sealed and shaken for 30 seconds. The plate was incubated at room temperature for at least one hour prior to determining the fluorescence polarization (FP). The parallel and perpendicular fluorescence of each well of the plate was measured using a Tecan Genios Pro plate reader (Tecan, Switzerland) or Perkin Elmer EnVision™ plate reader (Waltham, Mass.). Fluorescence polarization (mP) was calculated from the parallel (S) and perpendicular (P) fluorescence of each sample well and the analogous values for the median control well, containing only substrate (So and Po), using the following equation: Polarization (mP)=1000*(S/So−P/Po)/(S/So+P/Po).
Dose-inhibition profiles for each compound were characterized by fitting the mP data to a four-parameter equation given below.
An apparent (KM) for FAM-labeled cAMP of ˜10 uM was used.
A Ki of 0.3 nM was found for `CC(C)C(c1ccc(CC(F)(F)F)cc1)n1nc(CO)c2c(=O)[nH]c(N(C)C)nc21` (single isomer, unassigned) [Example 89, (S)- or (R)-6-(Dimethylamino)-3-(hydroxymethyl)-1-(2-methyl-1-(4-(2,2,2-trifluoroethyl)phenyl)propyl)-1H-pyrazolo[3,4-d]pyrimidin-4(5H)-one] in this work. A Ki of 0.32 nM was found for `CC(c1ccc(CC(F)(F)F)cc1)n1nc(CF)c2c(=O)[nH]c(N(C)C)nc21` (single isomer, unassigned) [Example 175, (S)- or (R)-6-(Dimethylamino)-3-(fluoromethyl)-1-(1-(4-(2,2,2-trifluoroethyl)phenyl)ethyl)-1H-pyrazolo[3,4-d]pyrimidin-4(5H)-one] in this work. A Ki of 0.32 nM was found for `CC(c1ccc(C(C)(C)C)cc1)n1nc(CO)c2c(=O)[nH]c(N(C)C)nc21` (single isomer, unassigned) [Example 67, (S)- or (R)-1-(1-(4-tert-Butylphenyl)ethyl)-6-(dimethylamino)-3-(hydroxymethyl)-1H-pyrazolo[3,4-d]pyrimidin-4(5H)-one] in this work. A Ki of 7.5 nM was found for `CC(C)C(c1ccc(OC(F)(F)F)c(F)c1)n1nc(CF)c2c(=O)[nH]c(O)nc21` (single isomer, unassigned) [Example 54] in this work. A Ki of 0.38 nM was found for `CCC(c1ccc(CC(F)(F)F)cc1)n1nc(CO)c2c(=O)[nH]c(N(C)C)nc21` (single isomer, unassigned) [Example 99, (S)- or (R)-6-(Dimethyiamino)-3-(hydroxymethyl)-1-(1-(4-(2,2,2-trifluoroethyl)phenyl)propyl)-1H-pyrazolo[3,4-d]pyrimidin-4(5H)-one] in this work. A Ki of 0.32 nM was found for `CC(C)C(c1ccc(C(F)F)c(F)c1)n1nc(CO)c2c(=O)[nH]c(N(C)C)nc21` (single isomer, unassigned) [Example 115, (R)- or (S)-1-(1-(4-(Difluoromethyl)-3-fluorophenyl)-2-methylpropyl)-6-(dimethylamino)-3-(hydroxymethyl)-1H-pyrazolo[3,4-d]pyrimidin-4(5H)-one] in this work. A Ki of 0.31 nM was found for `CC(C)C(c1ccc(CC(F)(F)F)cc1)n1nc(CO)c2c(=O)[nH]c(N(C)C)nc21` (single isomer, unassigned) [Example 88, (R)- or (S)-6-(Dimethylamino)-3-(hydroxymethyl)-1-(2-methyl-1-(4-(2,2,2-trifluoroethyl)phenyl)propyl)-1H-pyrazolo[3,4-d]pyrimidin-4(5H)-one] in this work.
